Among the data in patent US10682419B2, “Prodrugs of peptide epoxy ketone protease inhibitors” (Onyx Therapeutics, Inc., priority 2012, dated 2020) are IC50 values, retold here.

Assay [1] has as its target c20s (Homo sapiens, UniProt P20618+P28074). Nature of the assay: Purified PI, IC50 against c20s. Type of assay: biochemical. As to conditions: read-out: Purified PI IC50 Slope (nM) c20s; slope method; * = did not converge.
The target of assay [2] is i20s (Homo sapiens, UniProt P20618+P28062). The assay is described as follows: Purified PI, IC50 against i20s. Type of assay: biochemical. As to conditions: read-out: Purified PI IC50 Slope (nM) i20s; slope method; * = did not converge.

In the case of `CC(C)C[C@H](NC(=O)[C@H](CCc1ccccc1)NC(=O)CN1CCOCC1)C(=O)N[C@@H](Cc1ccccc1)C(=O)N[C@@H](CC(C)C)C(=O)[C@](C)(O)COS(C)(=O)=O`, the results for the IC50 in assay [1] and in assay [2] were 73.7 nM and 316 nM, respectively.
